PglD inh: C. jejuni PglD acetyltransferase inhibitors, primary screen, biochemical, DTNB colorimetric, single point. purified PglD enzyme, DTNB colorimetric CoA detection. inhibition, % at 12.5 µM. 360,000 compounds, 0.098% hits; in the data active means inhibition above about 16%, passing the limit was not always enough; inconclusive means no clear call, values can overlap the other calls
Statin myotox sup: suppressors of statin myotoxicity in C2C12 myotubes, primary screen, cell-based, single point, plate reader; C2C12 myotubes + simvastatin, ATP luminescence, 48 h; scaled: DMSO 0, geranylgeraniol control 100; AID 602340, 2012; rescue of ATP level, % at 7.49 µM; 330,000 compounds, 0.78% hits;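 active means mean ATP rescue above about 67%, or every replicate alone reaching that limit, limit read from the data, passing the limit was not always enough; inconclusive means no clear call, values can overlap the other calls; inactive means mean under the limit and some replicate under it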;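 further: myotubes were challenged with 10 µM simvastatin during compound exposure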
esBAF inh: Bmi1 luciferase reporter increase in mESCs, primary screen, esBAF inhibitor project, mouse ES cells, Bmi1 luciferase knock-in, single point; reporter increase, % at 12.5 µM; 24 h; 100% = twice the neutral-well signal; 350,000 compounds, 2% hits; AID 602393, 2012; in the data active means activation above about 40%; inconclusive means no clear call, values can overlap the other calls;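 further: a rise in the Bmi1 reporter signal indicates esBAF inhibition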
Yeast UUG start: yeast start codon fidelity modulation; AID 602363; activity score, % at 18.7 µM; S. cerevisiae UUG-firefly luciferase reporter, luminescence/redox ratio; 0.13% of 350,000 active;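 active means replicate mean at a twofold rise or more, about +100% in these data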;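 further: firefly luciferase made from a UUG start codon reports start codon fidelity; reporter light over untreated wells divided by growth signal over untreated wells; some hits fall short of that in this replicate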
E-sel inducer: E-selectin induction in HUVECs, primary screen, imaging, HUVEC, immunofluorescence imaging, single point; 260,000 compounds, 0.37% hits; normalized: neutral wells 0, TNF-alpha wells 100; activation, % at 7.58 µM; AID 686992, 2013; P16581;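 active means mean E-selectin-positive cell signal at least 10% of the positive control, reached in at least 60% of replicates, without over 20% cell loss; inconclusive means no rule given, readout overlaps actives, possibly toxicity-flagged; inactive means the rest, including those meeting only one limit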
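System: HUVEC, human umbilical vein endothelial cells; quantity: 3,000 cells/well; buffer or medium: EGM-2 medium, gelatin-coated wells; dosing: single-point compound dose; detection: immunofluorescence imaging; evaluation: % PE-positive cells; benchmarks: TNF-alpha, DMSO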
PGC1a acetyl inh: inhibitors of PGC1a acetylation signal, primary screen, cell-based, U2OS, AlphaScreen, inhibitor mode; AlphaScreen anti-acetyl-lysine; with virally co-expressed GCN5 acetyltransferase; AID 651687, 2012; 350,000 compounds, 0.17% hits; inhibition, % at 15.6 µM;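 active means every replicate shows inhibition of at least 40%; inconclusive means mean inhibition at least 40% but some replicate below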
Hits are given with their value; – = inactive; ? = inconclusive; · = no result. Sampled rows, rich in hits. Any-hit rate of the full collection: about 2.8%.

SMILES | PglD inh | Statin myotox sup | esBAF inh | Yeast UUG start | E-sel inducer | PGC1a acetyl inh
Cc1nn2c(-c3ccc(F)cc3)ccnc2c1Cl | – | – | – | – | – | ·
Cc1nn2c(N)c(-c3ccccc3)cnc2c1-c1ccccc1 | – | – | 50.1 | – | · | –
Brc1ccc(-c2noc(CCc3ccccc3)n2)o1 | – | – | 50.0 | – | – | –
Fc1ccc(OCc2nc(-c3ccc(Br)o3)no2)c(F)c1 | – | – | – | – | – | –
Clc1ccccc1OCc1nc(-c2ccc(Br)o2)no1 | – | – | 54.4 | – | – | –
N#Cc1ccc(-c2ccc([C@H]3[C@H](CO)N4C(=O)CN(C(=O)C5CC5)C[C@@H]34)cc2)cc1 | · | · | · | · | – | –
CCOC(=O)c1c(C)oc2c1c(C(c1cccnc1)N1CCOCC1)c(O)c1ccccc12 (configuration not stated) | · | – | 68.6 | · | · | –
CCOC(=O)c1c(C)oc2c1c1c(c3ccccc32)OCN(CCCC(=O)O)C1 | – | – | 50.5 | – | · | –
CCOC(=O)c1c(C)oc2c1c1c(c3ccccc32)OCN(Cc2cccnc2)C1 | – | – | 73.8 | – | · | –
CCOC(=O)c1c(C)oc2c1cc(O)c1ccccc12 | · | · | · | · | · | –
COC(=O)NCC(c1cccnc1)N1CCOCC1 (configuration not stated) | – | – | – | – | – | –
C[C@@H]1CN([C@@H](C)CO)C(=O)c2cc(NC(=O)Nc3ccccc3)ccc2O[C@@H]1CN(C)Cc1ccc2c(c1)OCO2 | – | – | – | – | – | –
COc1ccc(NC(=S)Nc2ccc(N)c([N+](=O)[O-])c2)cc1 | – | – | 47.4 | – | · | –
COc1ccc(NC(=S)Nc2ccc3nccnc3c2)cc1 | – | – | 64.7 | – | – | –
S=C(Nc1nc2c(s1)CCCC2)NC1CC1 | – | – | 50.9 | – | – | –
CN=C1S/C(=C\c2ccc(N3CCCC3)c(F)c2)C(=O)N1C | – | – | – | – | – | –
CN=C1S/C(=C\c2ccc(N3CCOCC3)c(F)c2)C(=O)N1C | – | – | 70.8 | – | · | –
[N-]=[N+]=CC(=O)c1ccnc(C(=O)C=[N+]=[N-])c1 | – | 93.6 | – | – | · | –
Cc1ccc(S(=O)(=O)Nc2ccc3c(c2)CC(=O)N([C@@H](C)CO)C[C@H](C)[C@@H](CN(C)S(C)(=O)=O)O3)cc1 | – | – | – | – | – | –
COc1cc(/C=N/NC(=S)NC2CC3CC2C2C=CCC32)ccc1O (configuration not stated) | · | – | 47.8 | · | – | –
Cc1ccc(S(=O)(=O)NNC2=NCCCCC2)cc1 | – | 92.2 | – | – | · | –
O=S(=O)(NC1=NCCCCC1)c1ccc(F)cc1 | – | – | – | – | – | –
O=S(=O)(NC1=NCCC1)c1ccc(F)cc1 | – | 106.8 | – | – | · | –
C[C@H](CO)N1C[C@H](C)[C@H](CN(C)S(C)(=O)=O)OCCCC[C@H](C)Oc2ccc(NC(=O)Nc3ccc(F)cc3)cc2C1=O | – | · | – | – | – | –
COCCCNC(=O)c1ccc2c(=O)n(Cc3ccc(Cl)cc3)c(=S)[nH]c2c1 | – | – | – | – | 48.6 | ·
SMILES | PglD inh | Statin myotox sup | esBAF inh | Yeast UUG start | E-sel inducer | PGC1a acetyl inh
COCCCNC(=O)c1ccc2c(=O)n(Cc3ccc4c(c3)OCO4)c(=S)[nH]c2c1 | – | – | – | – | · | –
CN(C)c1ccc(C=C2SC(=S)NC2=O)cc1 | – | – | 53.8 | · | – | 51.2
CCOc1ccc(N(C)c2ccc(/C=C3/SC(=S)NC3=O)cc2)cc1 | – | – | – | – | · | ·
O=C1C(Cl)=C(NCCc2ccccc2)C(=O)N1CCc1ccccc1 | – | 163.9 | ? | – | · | –
O=C(O)CC(c1ccccc1)n1cccc1 (configuration not stated) | – | 114.5 | – | – | · | –
C[C@@H]1CN([C@H](C)CO)C(=O)c2cc(/C=C/c3ccccc3)cnc2O[C@H]1CN(C)S(=O)(=O)c1cccs1 | – | – | – | – | – | –
CC1CCN(C(=O)N2c3ccccc3Sc3ccccc32)CC1 | – | – | – | – | · | –
O=C(NC1CCN(C(=O)N2c3ccccc3Sc3ccccc32)CC1)c1ccccc1F | – | 75.9 | – | – | · | –
C[C@@H](NC(=O)C[C@H]1C[C@@H]2c3cc(NC(=O)CN(C)C)ccc3O[C@@H]2[C@H](CO)O1)c1ccccc1 | – | – | – | – | – | –
C[C@@H]1CN([C@H](C)CO)C(=O)c2cc(NC(=O)Cc3ccccc3)ccc2O[C@@H]1CN(C)S(=O)(=O)c1ccccc1 | – | – | – | – | – | –
O=[N+]([O-])c1ccc(C=CC=Cc2ccccc2)cc1 | – | – | 55.9 | – | · | –
O=[N+]([O-])c1ccc(C=NNc2ccccc2)cc1 | – | – | 44.2 | – | – | –
O=[N+]([O-])c1cccc(N/N=C/c2ccc(N3CCOCC3)cc2)c1 | – | – | 66.1 | – | · | ·
Cc1csc(N/N=C/c2ccc([N+](=O)[O-])cc2)n1 | – | – | 52.6 | – | · | –
O=C(C=Cc1ccccc1)c1ccc([N+](=O)[O-])cc1 | – | – | – | – | – | –
O=[N+]([O-])c1cccc(C=NNc2ccccc2)c1 | – | – | ? | – | – | –
Clc1cccc(N/N=C/c2ccc(N3CCOCC3)cc2)c1 | – | – | – | – | · | –
C[C@@H]1CCCCO[C@@H](CN(C)C(=O)c2ccccc2)[C@H](C)CN([C@@H](C)CO)C(=O)c2cc(NC(=O)Cc3ccccc3)ccc2O1 | – | · | – | – | – | –
COc1cccc(CN2C[C@@H](C)[C@H](OC)CN(C)C(=O)c3cc(NS(=O)(=O)c4cn(C)cn4)ccc3OC[C@H]2C)c1 | – | – | – | – | – | –
O=[N+]([O-])c1ccc(NN=Cc2ccccc2O)nc1 | – | – | – | – | · | –
O=[N+]([O-])c1ccc(N/N=C/c2ccccc2O)cc1 | – | – | 68.7 | – | · | ·
O=S(=O)(Nc1nc2ccccc2nc1NCc1ccco1)c1ccc(Cl)cc1 | – | – | – | – | · | ·
Cc1ccc(S(=O)(=O)Nc2nc3ccccc3nc2NCc2ccco2)cc1 | · | – | 92.2 | · | · | ·
c1ccc(Nc2ccnc(Nc3ccccc3)n2)cc1 | – | – | 45.3 | – | · | ·
CC1CCc2c(sc3ncn(CCO)c(=O)c23)C1 (configuration not stated) | – | – | 53.0 | – | – | –
O=C(Nc1cc2nn(-c3ccccc3)nc2cc1Cl)c1ccco1 | – | – | ? | – | · | –
O=C(Nc1ccc2nn(-c3ccccc3)nc2c1)c1ccco1 | – | – | 61.5 | – | · | –
O=C(Nc1ccc2nn(-c3ccccc3)nc2c1)c1cccnc1 | – | 130.1 | 52.8 | – | · | –
